Values of other authors as cited in patent publication US6413946B1, “Composition for treatment of diabetes and treatment of diabetes” (Meiji Seika Kaisha, Ltd., priority 1997, dated 2002).

Conditions: orally administered; cited from earlier work

For sodium metavanadate, the “Toxicity relative to vanadyl sulfate (VOSO4)” value is given as “about 10 times”.
